From PubChem BioAssay AID951 (NMMLSC, 2007) come the findings set out here.

The chains behind the UniProt entries cited, without tags or fusion partners.
UniProt Q9HD36, whole entry: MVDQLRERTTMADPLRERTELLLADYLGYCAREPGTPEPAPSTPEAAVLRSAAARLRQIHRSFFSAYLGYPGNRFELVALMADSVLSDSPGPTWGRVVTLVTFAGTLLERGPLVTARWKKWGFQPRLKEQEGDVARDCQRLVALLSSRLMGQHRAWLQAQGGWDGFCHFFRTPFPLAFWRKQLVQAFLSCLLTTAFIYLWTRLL

Only a part is listed here, and it is no random draw. Activity calls are given as the source filed them. Rule as the data show it: active = inhibition above about 40%.

The test concerns the target Bcl-2-like protein 10 (Homo sapiens) (UniProt Q9HD36). The test can be described thus: Bcl-B and Bim peptide interaction disruptors – biochemical, multiplexed, human Bcl-2 family, primary screen (AID 951).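 Also: 0% = tracer peptide without compound and 100% = reference inhibitor peptide.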 The conditions noted are these: bead-based flow cytometry, Bim peptide-Bcl-B binding; at 10 µM; hits give high values. In general terms: A flow cytometer gives signals particle by particle.
As a reminder, the inhibition is the change of the read-out against control, counted positive when it falls. For `Fc1ccccc1NC1CCN(Cc2ccccc2)CC1`, the inhibition was inactive: -1%.

On to `CN(C)c1ccc(C(=O)NCC2(N3CCCCC3)CCCCC2)cc1`, for which the inhibition is inactive: -3%.

Consider `CCN1CCC(Nc2cccc(F)c2)CC1`, for which the inhibition was inactive: -5%.

With `CC(C)(C)OC(=O)N1CCC(Nc2ccccc2)CC1`, the inhibition is inactive: -10%.

As for `CCOc1ncccc1C(=O)NCC1(N2CCOCC2)CCCCC1`, the inhibition was inactive: -2%.

Consider `CCC(CO)(C(=O)OC1CN2CCC1CC2)c1ccccc1` (stereo not given), for which the inhibition was inactive: -6%.

`COc1cc(OC)cc(C(=O)NCC2(N3CCOCC3)CCCCC2)c1`: the inhibition was inactive: -1%.

Consider `COc1ccc(C(=O)NCC2(N3CCOCC3)CCCCC2)cc1OC`, for which the inhibition was inactive: -2%.

On to `O=C(OC1CN2CCC1CC2)C1c2ccccc2C=Cc2ccccc21` (stereo not given), for which the inhibition was inactive: -2%.

Consider `N/C(=N\O)c1c(N)no[n+]1[O-]`, for which the inhibition was inactive: -2%.

Take `N#Cc1ccc(C(=O)NCC2(N3CCCCC3)CCCCC2)cc1`: the inhibition is inactive: -4%.

On to `c1ccc(CN2CCC(Nc3ccccc3)CC2)cc1`, for which the inhibition was inactive: -6%.

Regarding `O=C(NCC1(N2CCCCC2)CCCCC1)c1cccc([N+](=O)[O-])c1`, the inhibition was inactive: 1%.

Regarding `N#CC1(Nc2ccccc2)CCN(CCc2ccccc2)CC1`, the inhibition was inactive: -2%.

For `COc1ccc(NC2CCN(C(=O)OC(C)(C)C)CC2)cc1`, the inhibition is inactive: -2%.

Regarding `CN1CCN(CCOC(=O)C(O)(c2ccccc2)c2ccccc2)CC1`, the inhibition was inactive: -6%.

For `O=C(NCC1(N2CCOCC2)CCCCC1)c1cc(=O)[nH]c2ccccc12`, the inhibition is inactive: -3%.

With `CN(C)c1cccc(C(=O)NCC2(N3CCCCC3)CCCCC2)c1`, the inhibition was inactive: 3%.

For `COc1ccc(CN(CCCl)CCCl)cc1Cl`, the inhibition was inactive: -2%.

On to `CC(C)c1ccc(NC2CCN(C(=O)OC(C)(C)C)CC2)cc1`, for which the inhibition is inactive: 0%.

On to `COc1ccc(C(=O)NCC2(N3CCCCC3)CCCCC2)c(OC)c1OC`, for which the inhibition was inactive: 0%.

With `CCOC(=O)N1CCC(Nc2ccc(OC)cc2)CC1`, the inhibition is inactive: -7%.

In the case of `O=C(OC1CN2CCC1CC2)C1c2ccccc2Oc2ccccc21` (stereo not given), the inhibition is inactive: 0%.

On to `O=C(NCC1(N2CCOCC2)CCCCC1)c1cc2ccccc2o1`, for which the inhibition is inactive: 6%.

Consider `COc1ccc(NC2CCN(CCc3ccccc3)CC2)c(OC)c1`, for which the inhibition was inactive: -9%.
